Data as given in ChEMBL document CHEMBL1139552, “Naphthamidine urokinase plasminogen activator inhibitors with improved pharmacokinetic properties” (Bioorg Med Chem Lett, 2005).

Protein sequences, listed by entry. Tags and fused reporters are not part of them. Residues count along the entry.
UniProt P00747, 97-580 limits assumed: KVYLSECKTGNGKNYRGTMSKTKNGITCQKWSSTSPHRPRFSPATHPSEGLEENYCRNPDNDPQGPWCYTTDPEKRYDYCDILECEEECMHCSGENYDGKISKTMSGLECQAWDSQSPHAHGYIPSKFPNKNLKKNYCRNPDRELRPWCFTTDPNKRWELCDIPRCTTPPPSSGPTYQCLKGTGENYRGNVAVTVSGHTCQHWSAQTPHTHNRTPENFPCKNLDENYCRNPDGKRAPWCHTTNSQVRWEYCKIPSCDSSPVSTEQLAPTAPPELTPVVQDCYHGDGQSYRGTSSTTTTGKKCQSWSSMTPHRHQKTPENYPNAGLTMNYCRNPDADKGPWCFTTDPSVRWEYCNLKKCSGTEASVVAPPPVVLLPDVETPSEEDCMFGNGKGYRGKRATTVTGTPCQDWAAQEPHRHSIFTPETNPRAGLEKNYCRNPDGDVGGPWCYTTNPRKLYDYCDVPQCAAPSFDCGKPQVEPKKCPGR
UniProt P00747, 581-810 limits assumed: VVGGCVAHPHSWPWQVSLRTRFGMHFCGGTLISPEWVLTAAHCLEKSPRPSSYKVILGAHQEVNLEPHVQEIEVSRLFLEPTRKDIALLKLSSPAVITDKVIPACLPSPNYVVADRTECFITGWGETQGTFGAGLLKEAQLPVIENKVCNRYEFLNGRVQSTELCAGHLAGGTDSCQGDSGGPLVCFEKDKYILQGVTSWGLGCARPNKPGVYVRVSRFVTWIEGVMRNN

Columns and labels:
[1] = biological target: Urokinase-type plasminogen activator (Homo sapiens, UniProt P00749)
Plasminogen = Plasminogen (Homo sapiens, UniProt P00747); assay: Binding affinity value against plasmin

Ki [1]	Ki (Plasminogen)	SMILES
0.139 µM	–	CC(C)C1=NCCc2ccc(C3CC3c3ccc4cc(C(=N)N)ccc4c3)cc21 (centres undefined)
0.38 µM	–	CC(C)C1=NCCc2ccc([C@@H]3CC3c3ccc4cc(C(=N)N)ccc4c3)cc21 (some centres undefined)
1.37 µM	–	N=C(N)c1ccc2cc(CCc3ccccc3)cc(Br)c2c1
0.065 µM	–	CC(C)C1=NCCc2ccc([C@H]3CC3c3ccc4cc(C(=N)N)ccc4c3)cc21 (some centres undefined)
1.2 µM	1.22 µM	N=C(N)c1ccc2cc(/C=C/c3ccccc3)ccc2c1
1.31 µM	–	N=C(N)c1ccc2cc(C3CC3c3ccccc3)ccc2c1 (centres undefined)

SMILES	Ki [1]	Ki (Plasminogen)
N=C(N)c1ccc2cc(CCc3ccccc3)cc(Nc3ncccn3)c2c1	0.047 µM	–
N=C(N)c1ccc2cc(C3CC3c3ccccc3)cc(-c3ccoc3)c2c1 (centres undefined)	0.198 µM	–
